Test results: PubChem BioAssay AID720543 (The Scripps Research Institute Molecular Screening Center, 2013)
Only a part is listed here, and it is no random draw. The source made the active and inactive calls.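 How the source made its calls: active means inhibition exceeding the mean over every tested compound plus 3 SD (cut at about 30% in these data); inactive means the rest.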

Protein sequences, listed by entry. Tags and fused reporters are not part of them.
UniProt Q8VD66, whole entry: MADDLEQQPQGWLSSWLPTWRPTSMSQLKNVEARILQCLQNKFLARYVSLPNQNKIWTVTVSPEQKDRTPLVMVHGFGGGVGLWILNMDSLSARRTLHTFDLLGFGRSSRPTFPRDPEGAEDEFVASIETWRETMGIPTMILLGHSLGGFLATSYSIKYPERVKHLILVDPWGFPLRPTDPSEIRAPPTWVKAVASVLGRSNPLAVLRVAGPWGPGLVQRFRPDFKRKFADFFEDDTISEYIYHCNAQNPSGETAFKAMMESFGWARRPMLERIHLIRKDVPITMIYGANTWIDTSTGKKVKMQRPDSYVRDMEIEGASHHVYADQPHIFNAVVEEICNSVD

What follows are molecules tested against (Lyso)-N-acylphosphatidylethanolamine lipase (Mus musculus) (UniProt Q8VD66) (assay: ABHD4 inhibitors, primary screen, biochemical, fluorescence polarization, mouse (AID 720543;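 further: 0% = plate median of compound wells and 100% = S159A mutant with DMSO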)). Conditions: purified mABHD4, FP-Rh probe fluorescence polarization; at 8.92 µM; hits give high values.
Summary of the method: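 Test system: mABHD4 protein; Read-out basis: % inhibition; Incubation: 45 min + 60 min at 25 °C; Repeats: single replicate; Technique: fluorescence polarization with parallel and perpendicular emission, 525/598 nm; Compound: 8.92 µM, single dose; Benchmarks: full inhibition S159A mutant plus DMSO, zero as sample-well median.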
CN(C)C1(CNC(=O)c2cccc(C#N)c2)CCCCC1 was tested, and the inhibition was inactive: -0.32%. C/C(N)=N\P(=O)(Oc1ccccc1)Oc1ccccc1 was tested, and the inhibition was inactive: -2.25%. c1ccc(CN2CCC(Nc3ccccc3)CC2)cc1 was tested, and the inhibition was inactive: -5.37%. In the case of Cc1cc(N(CCCl)CCCl)ccc1C=O, the inhibition is reported as inactive: 1.39%. With O=c1[nH]c2ccccc2n1C1CCN(C(c2ccccc2)c2nnnn2C2CCCC2)CC1 (stereo not given) the inhibition was inactive: 2.23%. With CCCN1CCC(Nc2cc(OC)cc(OC)c2)CC1 the inhibition was inactive: -5.41%. CC(C)(C)n1nnnc1C(c1cccc2ccccc12)N1CCC(n2c(=O)[nH]c3ccccc32)CC1 (stereo not given) was tested, and the inhibition was inactive: -15.8%. In the case of N#Cc1ccc(C(=O)NCC2(N3CCCCC3)CCCCC2)cc1, the inhibition is reported as inactive: 2.56%. In the case of CC(C)(C)OC(=O)N1CCC(N(C(=O)c2ccccc2)c2ccc(Cl)cc2)CC1, the inhibition is reported as inactive: -1.8%. In the case of CCOC(=O)N1CCC(Nc2ccc(C)cc2)CC1, the inhibition is reported as inactive: -3.21%. For COc1cccc(C(c2nnnn2C(C)(C)C)N2CCC(n3c(=O)[nH]c4ccccc43)CC2)c1OC (stereo not given), the inhibition was inactive: 2.48%. With N/C(=N\O)c1c(N)no[n+]1[O-] the inhibition was inactive: 3.72%. O=C(OC1CN2CCC1CC2)C1c2ccccc2C=Cc2ccccc21 (stereo not given) was tested, and the inhibition was inactive: 2.36%. In the case of O=c1[nH]c2ccccc2n1C1CCN(C(c2cccs2)c2nnnn2C2CCCC2)CC1 (stereo not given), the inhibition is reported as inactive: -7.63%. CCCCn1nnnc1C(c1cccc(OC)c1OC)N1CCC(n2c(=O)[nH]c3ccccc32)CC1 (stereo not given) was tested, and the inhibition was inactive: -0.85%. In the case of CCCCn1nnnc1C(c1ccccc1)N1CCC(n2c(=O)[nH]c3ccccc32)CC1 (stereo not given), the inhibition is reported as inactive: -6.34%. With COc1cc(C(=O)NCC2(N3CCOCC3)CCCCC2)cc(OC)c1C the inhibition was inactive: -6.49%. For O=C(NCC1(N2CCOCC2)CCCCC1)c1cc(Br)ccc1Cl, the inhibition was inactive: -0.11%. In the case of O=c1[nH]c2ccccc2n1C1CCN(C(c2cccs2)c2nnnn2C2CCCCC2)CC1 (stereo not given), the inhibition is reported as inactive: -8.08%. With NC(=O)C1(Nc2ccccc2)CCN(Cc2ccccc2)CC1 the inhibition was inactive: 5.2%. COc1ccc(C(=O)NCC2(N3CCOCC3)CCCCC2)cc1OC was tested, and the inhibition was inactive: -5.44%. For O=c1[nH]c2ccccc2n1C1CCN(C(c2ccnc3ccccc23)c2nnnn2C2CCCC2)CC1 (stereo not given), the inhibition was inactive: 2.21%. In the case of COc1cccc(C(=O)N(c2cc(C)cc(C)c2)C2CCN(C(=O)OC(C)(C)C)CC2)c1, the inhibition is reported as inactive: 3.47%. In the case of COc1cccc(C(c2nnnn2C2CCCC2)N2CCC(n3c(=O)[nH]c4ccccc43)CC2)c1OC (stereo not given), the inhibition is reported as inactive: -5.47%. COc1cc(OC)cc(C(=O)NCC2(N3CCOCC3)CCCCC2)c1 was tested, and the inhibition was inactive: -4.55%. CCC(CO)(C(=O)OC1CN2CCC1CC2)c1ccccc1 (stereo not given) was tested, and the inhibition was inactive: 7.53%. For CN1CCC(Nc2ccc(Cl)cc2)CC1, the inhibition was inactive: -1.93%. For CCOc1ncccc1C(=O)NCC1(N2CCOCC2)CCCCC1, the inhibition was inactive: 1.78%. CN1CCC(Nc2ccc(F)c(Cl)c2)CC1 was tested, and the inhibition was inactive: 15.4%. CC(C)(C)OC(=O)N1CCC(Nc2ccccc2)CC1 was tested, and the inhibition was inactive: -3.29%. NN(c1ccccc1)C1CCN(CCc2ccccc2)CC1 was tested, and the inhibition was inactive: 3.06%. With O=C(O)C1(Nc2ccccc2)CCN(Cc2ccccc2)CC1 the inhibition was inactive: -1.36%. In the case of O=c1[nH]c2ccccc2n1C1CCN(C(c2cc3ccccc3o2)c2nnnn2C2CCCC2)CC1 (stereo not given), the inhibition is reported as inactive: -10.5%. CCCOc1ccc(C(=O)NCC2(N(C)C)CCCCC2)cc1 was tested, and the inhibition was inactive: 5.83%. For Cc1ccccc1NC1(C#N)CCN(Cc2ccccc2)CC1, the inhibition was inactive: 5.64%. With CCN1CCC(Nc2cccc(F)c2)CC1 the inhibition was inactive: 19.2%. In the case of COc1ccc(C(c2nnnn2C2CCCCC2)N2CCC(n3c(=O)[nH]c4ccccc43)CC2)cc1 (stereo not given), the inhibition is reported as inactive: 1.15%. CC(C)(C)n1nnnc1C(c1ccnc2ccccc12)N1CCC(n2c(=O)[nH]c3ccccc32)CC1 (stereo not given) was tested, and the inhibition was inactive: 9.78%. O=C(NCC1(N2CCCCC2)CCCCC1)c1ccco1 was tested, and the inhibition was inactive: -21.5%. In the case of CN(C)c1ccc(C(=O)NCC2(N3CCCCC3)CCCCC2)cc1, the inhibition is reported as inactive: 2.11%. Cn1c(=O)[nH]cc(N(CCCl)CCCl)c1=O was tested, and the inhibition was inactive: 2.35%. With COc1cccc(C(c2nnnn2C2CCCCC2)N2CCC(n3c(=O)[nH]c4ccccc43)CC2)c1OC (stereo not given) the inhibition was inactive: -17%. With CC(=O)N(c1ccccc1)C1CCNCC1 the inhibition was inactive: -3.56%. In the case of CCC(c1nnnn1C1CCCCC1)N1CCC(n2c(=O)[nH]c3ccccc32)CC1 (stereo not given), the inhibition is reported as inactive: -12%. For COc1cc(OC)cc(C(=O)NCC2(N3CCCCC3)CCCCC2)c1, the inhibition was inactive: 0.02%. With O=c1[nH]c2ccccc2n1C1CCN(C(c2ccnc3ccccc23)c2nnnn2C2CCCCC2)CC1 (stereo not given) the inhibition was inactive: -5.31%. For Cc1ccc(C(=O)NCC2(N3CCCCC3)CCCCC2)o1, the inhibition was inactive: 18.4%. With Fc1ccccc1NC1CCN(Cc2ccccc2)CC1 the inhibition was inactive: -3.02%. Cc1ccc(NC2(C#N)CCN(Cc3ccccc3)CC2)cc1 was tested, and the inhibition was inactive: -1.58%. O=c1[nH]c2ccccc2n1C1CCN(C(c2ccccc2)c2nnnn2C2CCCCC2)CC1 (stereo not given) was tested, and the inhibition was inactive: 4.54%. With CCOC(=O)N1CCC(Nc2cccc(C)c2)CC1 the inhibition was inactive: -8.65%. For COc1cc(C(=O)NCC2(N(C)C)CCCCC2)ccc1OC(F)F, the inhibition was inactive: -4.02%. In the case of O=c1[nH]c2ccccc2n1C1CCN(C(c2cccc3ccccc23)c2nnnn2C2CCCC2)CC1 (stereo not given), the inhibition is reported as inactive: -6%. CC(C)(C)n1nnnc1C(c1ccccc1)N1CCC(n2c(=O)[nH]c3ccccc32)CC1 (stereo not given) was tested, and the inhibition was inactive: -7.21%. For O=C1CCN(Cc2ccccc2)CC1, the inhibition was inactive: -1.08%. With CCOc1ccc(C)cc1CN(CCCl)CCCl the inhibition was inactive: 0.02%. For CCCCOc1ccc(C(=O)NCC2(N3CCOCC3)CCCCC2)cc1, the inhibition was inactive: 3.47%. For O=P1(N(CCCl)CCCl)SCCCS1, the inhibition was inactive: 0.08%. For CCCCn1nnnc1C(c1cc2ccccc2o1)N1CCC(n2c(=O)[nH]c3ccccc32)CC1 (stereo not given), the inhibition was inactive: -5.21%. For O=C(NCC1(N2CCCCC2)CCCCC1)c1ccc(F)cc1, the inhibition was inactive: -2.54%. For CCOC(=O)N1CCC(Nc2ccc(F)cc2)CC1, the inhibition was inactive: -11.6%. For COc1ccc(NC2CCN(CCc3ccccc3)CC2)c(OC)c1, the inhibition was inactive: 1.37%. For O=C(NCC1(N2CCCCC2)CCCCC1)c1ccc(Cl)nc1, the inhibition was inactive: 6.48%. For O=c1[nH]c2ccccc2n1C1CCN(C(c2ccccc2OC(F)(F)F)c2nnnn2C2CCCCC2)CC1 (stereo not given), the inhibition was inactive: 5.07%. For Cc1cc(C)cc(N(C(=O)c2ccccc2)C2CCN(C(=O)OC(C)(C)C)CC2)c1, the inhibition was inactive: 6.45%. O=C(NCC1(N2CCOCC2)CCCCC1)c1cc2ccccc2o1 was tested, and the inhibition was inactive: 6.68%. N#CC1(Nc2ccccc2)CCN(Cc2ccccc2)CC1 was tested, and the inhibition was inactive: 1.84%. For O=C(NCC1(N2CCCCC2)CCCCC1)c1ccc(Cl)s1, the inhibition was inactive: 7.81%. With O=c1[nH]c2ccccc2n1C1CCN(C(c2cc3ccccc3o2)c2nnnn2C2CCCCC2)CC1 (stereo not given) the inhibition was inactive: -4.76%. In the case of O=C(OC1CN2CCC1CC2)C1c2ccccc2Oc2ccccc21 (stereo not given), the inhibition is reported as inactive: -1.44%. COc1ccc(Cl)cc1C(=O)NCC1(N2CCOCC2)CCCCC1 was tested, and the inhibition was inactive: -1.83%. For CCOC(=O)N1CCC(Nc2ccc(OC)cc2)CC1, the inhibition was inactive: -3.05%. In the case of CCCCn1nnnc1C(c1ccc(OC)cc1)N1CCC(n2c(=O)[nH]c3ccccc32)CC1 (stereo not given), the inhibition is reported as inactive: -2.62%. In the case of COc1ccc(C(=O)NCC2(N3CCCCC3)CCCCC2)cc1, the inhibition is reported as inactive: -2.48%. For CC(C)(C)OC(=O)N1CCC(N(C(=O)c2ccccc2)c2ccc(F)cc2)CC1, the inhibition was inactive: 1.31%. In the case of COc1ccc(C(=O)NCC2(N3CCCCC3)CCCCC2)c(OC)c1OC, the inhibition is reported as inactive: 2.34%. In the case of CCC(c1nnnn1C1CCCC1)N1CCC(n2c(=O)[nH]c3ccccc32)CC1 (stereo not given), the inhibition is reported as inactive: -1.65%. O=C(NCC1(N2CCCCC2)CCCCC1)c1ccc(=O)[nH]c1 was tested, and the inhibition was inactive: -2.89%. O=C(NCC1(N2CCCCC2)CCCCC1)c1cccs1 was tested, and the inhibition was inactive: 1.71%. In the case of CCCCn1nnnc1C(CC)N1CCC(n2c(=O)[nH]c3ccccc32)CC1 (stereo not given), the inhibition is reported as inactive: 3.44%. With CCCCn1nnnc1C(c1cccs1)N1CCC(n2c(=O)[nH]c3ccccc32)CC1 (stereo not given) the inhibition was inactive: -11.4%. For CSc1ccccc1C(=O)NCC1(N2CCCCC2)CCCCC1, the inhibition was inactive: 2.5%. In the case of Cc1cccc(NC2(C#N)CCN(Cc3ccccc3)CC2)c1, the inhibition is reported as inactive: -6.05%. For CN1CCC(Nc2cccc(F)c2)CC1, the inhibition was inactive: 15.4%. With O=C(NCC1(N2CCCCC2)CCCCC1)c1cncc(Br)c1 the inhibition was inactive: 0.42%. For COc1ccc(C(c2nnnn2C2CCCC2)N2CCC(n3c(=O)[nH]c4ccccc43)CC2)cc1 (stereo not given), the inhibition was inactive: 1.18%. In the case of Cc1ccc(C(=O)NCC2(N(C)C)CCCCC2)o1, the inhibition is reported as inactive: 2.25%. For CCCOc1ccc(C(=O)NCC2(N(C)C)CCCCC2)cc1OC, the inhibition was inactive: 7.77%. CC(C)c1ccc(NC2CCN(C(=O)OC(C)(C)C)CC2)cc1 was tested, and the inhibition was inactive: 1.09%. COc1ccc(CN(CCCl)CCCl)cc1Cl was tested, and the inhibition was inactive: -9.68%. In the case of COC(=O)C1(Nc2ccccc2)CCN(Cc2ccccc2)CC1, the inhibition is reported as inactive: -2.68%. In the case of CN(C)c1cccc(C(=O)NCC2(N3CCCCC3)CCCCC2)c1, the inhibition is reported as inactive: 3.64%. For COc1cc(OC)c(C(=O)NCC2(N(C)C)CCCCC2)cc1OC, the inhibition was inactive: -1.25%. In the case of CCC(c1nnnn1C(C)(C)C)N1CCC(n2c(=O)[nH]c3ccccc32)CC1 (stereo not given), the inhibition is reported as inactive: -1%. O=C(NCC1(N2CCOCC2)CCCCC1)c1cc(F)c(F)cc1Cl was tested, and the inhibition was inactive: 1.86%. For CCCCn1nnnc1C(c1ccnc2ccccc12)N1CCC(n2c(=O)[nH]c3ccccc32)CC1 (stereo not given), the inhibition was inactive: -3.94%. For O=C(NCC1(N2CCCCC2)CCCCC1)c1cccc(C(F)(F)F)c1, the inhibition was inactive: 6.45%. With O=C(NCC1(N2CCOCC2)CCCCC1)c1cc(=O)[nH]c2ccccc12 the inhibition was inactive: 3.42%. COc1cc(C(=O)NCC2(N3CCCCC3)CCCCC2)ccc1OC(F)F was tested, and the inhibition was inactive: 2.11%. In the case of CC(C)c1ccc(C(=O)NCC2(N3CCOCC3)CCCCC2)cc1, the inhibition is reported as inactive: -6.48%. With COc1ccc(NC2CCN(C(=O)OC(C)(C)C)CC2)cc1 the inhibition was inactive: -5.73%. In the case of CN1CCN(CCOC(=O)C(O)(c2ccccc2)c2ccccc2)CC1, the inhibition is reported as inactive: 7.09%. With CCCCn1nnnc1C(c1cccc2ccccc12)N1CCC(n2c(=O)[nH]c3ccccc32)CC1 (stereo not given) the inhibition was inactive: -30.6%. For CC(C)(C)n1nnnc1C(c1ccccc1OC(F)(F)F)N1CCC(n2c(=O)[nH]c3ccccc32)CC1 (stereo not given), the inhibition was inactive: -1.62%. With O=C(NCC1(N2CCCCC2)CCCCC1)c1ccc(OC(F)F)cc1 the inhibition was inactive: 4.51%. For CCN1CCC(Nc2ccc(Cl)cc2)CC1, the inhibition was inactive: -12%. In the case of O=c1[nH]c2ccccc2n1C1CCN(C(c2ccccc2OC(F)(F)F)c2nnnn2C2CCCC2)CC1 (stereo not given), the inhibition is reported as inactive: -6.97%. With N#CC1(Nc2ccccc2)CCN(CCc2ccccc2)CC1 the inhibition was inactive: 2.49%. CSc1ccc(C(=O)NCC2(N3CCOCC3)CCCCC2)cc1 was tested, and the inhibition was inactive: -8.88%. For O=C(NCC1(N2CCCCC2)CCCCC1)c1cccc([N+](=O)[O-])c1, the inhibition was inactive: 7.7%.
